# Values quoted from earlier work as cited in patent US9517934B2, “Process for the generation of chlorine dioxide” (The United States of America as Represented by the …, priority 2013, dated 2016).
# Settings: vide Horváth et al.; cited from earlier work
substance,measurement,value
chlorous acid,acid dissociation constant Ka,≈ 1×10^−2 M
same,pKa (−log Ka),≈ 2
